These are literature values, as cited in patent US8658351B2, “Determining liver toxicity of an agent using metabolite biomarkers” (Metabolon, Inc., priority 2009, dated 2014).

Series [1] relates to Rats. Conditions: High dose; agents known to induce distinct types of liver histopathology; cited from earlier work.
For series [2], the system named is humans. Conditions: cited from earlier work.

Take `S=C=Nc1cccc2ccccc12` [ANIT, 1-naphthyl isothiocyanate]: the “Classification of toxic effect on liver histopathology (type of histopathology)” value in series [1] is reported as “Cholestasis”.

Consider `CS(=O)(=O)Nc1ccc([N+](=O)[O-])cc1Oc1ccccc1` [Nimesulide], for which the Hepatotoxicity to humans result in series [2] is “known hepatotoxins to humans”.
